# Values of other authors, collected in patent publication US20170198359A1, “METHODS AND COMPOSITIONS FOR TREATMENT OR DIAGNOSIS OF CANCERS RELATED TO GABRA3” (The Wistar Institute of Anatomy and Biology, priority 2016, published 2017).
# B1: Recombinant interferon-β: Recombinant interferon-β (IFN-β) (protein, UniProt P01574 22-187, looked up)
# Interferon beta: MSYNLLGFLQRSSNFQCQKLLWQLNGRLEYCLKDRMNFDIPEEIKQLQQFQKEDAALTIYEMLQNIFAIFRQDSSSTGWNETIVENLLANVYHQINHLKTVLEEKLEKEDFTRGKLMSSLHLKRYYGRILHYLKAKEYSHCAWTIVRVEILRNFYFINRLTGYLRN
# Test system: metastatic breast cancer
# Conditions: metastatic breast cancer patients with minimal residual disease after chemotherapy or non-progressing during endocrine therapy; cited from earlier work
molecule,measurement,value
B1,clinical benefits and overall survival,improve
